{"source": "patent US10583094B2", "conditions": "MCE model, 300 μM, 0.5 μl/hr subcutaneously", "data": [{"substance": "BODIPY-FL-glyburide [BODIPY-glibenclamide]", "values": [{"measurement": "Fluorescent labeling in uninvolved hemisphere and pancreas", "value": "minimal labeling"}, {"measurement": "Fluorescent labeling in unperfused core of the stroke", "value": "none"}]}]}
